ChEMBL document CHEMBL1145102, “Novel hexahydrospiro[piperidine-4,1'-pyrrolo[3,4-c]pyrroles]: highly selective small-molecule nociceptin/orphanin FQ receptor agonists” (2003)
Several values for one entry are separate records, joined by “and”; a condition that tells them apart may be missing. Equal values may be shown once.

What was measured:
[1] = biological target: Kappa-type opioid receptor (Homo sapiens, UniProt P41145); assay: Inhibition of naloxone binding to human Opioid receptor kappa 1
Nociceptin receptor = Nociceptin receptor (Homo sapiens, UniProt P41146); assay: Inhibition of N/OFQ binding to human Orphanin FQ receptor (Nociceptin/Orphanin)
[2] = biological target: Delta-type opioid receptor (Homo sapiens, UniProt P41143); assay: Inhibition of deltorphin II binding to human Opioid receptor delta 1
Mu-type opioid receptor = Mu-type opioid receptor (Homo sapiens, UniProt P35372); assay: Inhibition of DAMGO binding to human Opioid receptor mu 1

Row | SMILES | Log Ki [1] | Log Ki (Nociceptin receptor) | Log Ki [2] | Log Ki (Mu-type opioid receptor)
1 | CC(C)[C@H]1CC[C@@H](N2CCC3(CC2)[C@@H]2CN(c4ccccc4)C[C@@H]2CN3c2ccccc2)CC1 | -6.29 | -8.78 | -6.66 | -6.87
2 | CN1C[C@@H]2CN(c3ccccc3)C3(CCN(C4CCCCCCCCC4)CC3)[C@@H]2C1 | -7.57 | -9.35 | -6.43 | -7.06
3 | CC(C)[C@H]1CC[C@@H](N2CCC3(CC2)[C@@H]2CNC[C@@H]2CN3c2ccccc2)CC1 | -6.59 | -8.66 | -5.75 | -6.3
4 | CC(C)[C@H]1CC[C@@H](N2CCC3(CC2)[C@@H]2CN(CC4CC4)C[C@@H]2CN3c2ccc(F)cc2)CC1 | -6.77 | -8.78 | -5.97 | -6.18
5 | CC(C)[C@H]1CC[C@@H](N2CCC3(CC2)[C@@H]2CN(Cc4ccccc4)C[C@@H]2CN3c2ccccc2)CC1 | -6.81 | -8.67 | -6.04 | -6.81
6 | CC(C)[C@H]1CC[C@@H](N2CCC3(CC2)[C@@H]2CN(C)C[C@@H]2CN3c2ccccc2)CC1 | -6.55 and -6.51 | -8.92 and -9.26 | -5.63 and -5.67 | -6.47 and -6.27
7 | CCCCN1C[C@@H]2CN(c3ccccc3)C3(CCN([C@H]4CC[C@@H](C(C)C)CC4)CC3)[C@@H]2C1 | -6.6 | -9.18 | -6.41 | -6.56
8 | CN1C[C@@H]2CN(c3ccccc3)C3(CCN(C4CCCCCCCC4)CC3)[C@@H]2C1 | -7.25 | -9.19 | -6.05 | -6.14
9 | CC(C)[C@H]1CC[C@@H](N2CCC3(CC2)[C@@H]2CN(CCO)C[C@@H]2CN3c2ccccc2)CC1 | -6.88 | -9.11 | -6.03 | -6.76
10 | CN1C[C@@H]2CN(c3ccccc3)C3(CCN([C@H]4CC[C@@H]5CCCC[C@@H]5C4)CC3)[C@@H]2C1 | -6.88 | -9.28 | -5.99 | -6.38
11 | CC(C)[C@H]1CC[C@@H](N2CCC3(CC2)[C@@H]2CN(CCN4CCOCC4)C[C@@H]2CN3c2ccccc2)CC1 | -6.83 | -8.68 | -5.53 | -6.75
